Source: PubChem BioAssay (Broad Institute)
Sampled rows, rich in hits. Any-hit rate of the full collection: about 1.3%.
SR-BI uptake up – activators of SR-BI mediated DiI-HDL uptake, primary screen, ldlA[mSR-BI] CHO cells, DiI fluorescence; activation, % at 12.5 µM; 3 h; 100 = double the neutral-control signal; 320,000 tested, 0.096% active;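 active = mean replicate activation of at least 60% and every replicate at or above 60%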;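 note: 0% = median plate neutral-control signal and 100% = twice that signal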
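System: CHO ldlA[mSR-BI] cells / Medium: HEPES-buffered (25 mM, pH 7.4) F12 plus 0.5% BSA / Probe or stimulus: labelled HDL, 10 µg/mL / Doses: single compound concentration, delivered by pin transfer / Schedule: 3 h, 37 °C / Measured by: DiI fluorescence, bottom read / Measure: cell-associated DiI fluorescence as measure of HDL uptake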
SR-BI DiI inh – inhibitors of SR-BI mediated HDL lipid uptake, primary screen, ldlA[mSR-BI] cells, fluorescence, single point; inhibition, % at 12.5 µM; ldlA[mSR-BI] CHO cells, DiI-HDL uptake fluorescence, 3 h; 320,000 tested, 0.96% active; Scavenger receptor class B member 1 (Mus musculus), Q61009;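 active = mean replicate inhibition of at least 70% and a set share of replicates each scoring 70 or more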;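 note: 0% = median of neutral control wells and 100% = median of positive control wells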
Yeast UUG start – yeast start codon fidelity modulation; activity score, % at 18.7 µM; actives 0.13% (n = 350,000); S. cerevisiae UUG-firefly luciferase reporter, luminescence/redox ratio; AID 602363;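 active means replicate mean at a twofold rise or more, about +100% in these data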;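 further: firefly luciferase made from a UUG start codon reports start codon fidelity; reporter light over untreated wells divided by growth signal over untreated wells; some hits fall short of that in this replicate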
INS-1E GSIS act – GLuc luminescence reporter in INS-1E cells, primary screen for activators of glucose-dependent secretion of insulin. INS-1E GLuc reporter insulin secretion, 2-3 h. 370,000 tested, 0.61% active. AID 743287, 2014. activation, % at 16.6 µM;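 active = lowest replicate activation of at least 40%, so every replicate reaches that level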;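 note: 0% = median of neutral control wells and 100% = median of IBMX positive control wells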
Numbers without * were called inactive; . = no result.

canonical_smiles | SR-BI uptake up | Yeast UUG start | SR-BI DiI inh | INS-1E GSIS act
Cn1cccc1-c1cc(C(=O)N/N=C/c2cc(Br)ccc2O)[nH]n1 | -105.4 | -16.3 | 105.3* | -4.5
COc1ccc(C(=O)N/N=C/c2cc(Br)ccc2O)cc1OC | -120.0 | . | 120.0* | -2.6
CCCOc1ccc(Br)cc1/C=N/NC(=O)c1cc(OC)c(OC)c(OC)c1 | -75.8 | . | 75.8* | 51.3
C[C@@H]1CN([C@H](C)CO)C(=O)Cc2cc(NC(=O)Cc3cn(C)c4ccccc34)ccc2O[C@@H]1CN(C)S(=O)(=O)c1ccc(Cl)cc1 | . | . | . | -3.1
COc1ccc(/C=N/NC(=O)c2ccc(Br)cc2)c(OC)c1 | -83.2 | -4.0 | 83.2* | -15.1
CC(C)(C)c1ccc(OCc2ccc(C(=O)N/N=C/c3ccc(O)c(O)c3)cc2)cc1 | -107.3 | . | 107.3* | 17.3
CC(C)(C)c1ccc(OCc2ccc(C(=O)N/N=C3\CC4CC=CC34)cc2)cc1 (stereo unspecified) | -78.7 | -3.8 | 78.7* | -29.6
COc1ccc(/C=N/NC(=O)c2ccncc2)c(OC)c1 | -21.2 | -12.4 | 21.2 | 13.8
C[C@@H]1CN([C@H](C)CO)C(=O)Cc2cc(NS(C)(=O)=O)ccc2O[C@@H]1CN(C)S(=O)(=O)c1ccccc1 | . | -3.4 | . | 7.4
COCC#Cc1cnc2c(c1)C(=O)N([C@@H](C)CO)C[C@H](C)[C@@H](CN(C)C(=O)c1cccnc1)O2 | . | -7.9 | . | 15.4
CCOC(=O)c1c(C)[nH]c(C(=O)COC(=O)c2cnccn2)c1C | 0.6 | -0.6 | -0.6 | 70.0*
CCCNC(=O)Nc1ccc2c(c1)OC[C@@H](C)N(CCC(F)(F)F)C[C@@H](C)[C@@H](OC)CN(C)C2=O | . | . | . | 0.2
CC(C)CN(C(=O)C1CCCCC1)C1CCS(=O)(=O)C1 (stereo unspecified) | 17.9 | -4.5 | -17.9 | 41.3*
CC(C)CN(C(=O)C1CC1)C1CCS(=O)(=O)C1 (stereo unspecified) | -0.4 | -22.7 | 0.4 | 7.4
C[C@H](NC(=O)[C@@H]1[C@@H](CO)[C@@H]2Cn3c(ccc(-c4ccccc4F)c3=O)[C@H]1N2C)c1ccccc1 | . | . | . | 19.1
Cc1ccc2oc(C(=O)Nc3nnc(C)s3)c(C)c2c1 | 2.0 | -15.4 | -2.0 | .
COc1ccc2oc(C(=O)Nc3nnc(C)s3)c(C)c2c1 | -21.4 | -14.6 | 21.4 | 52.7*
C[C@H]1CN([C@@H](C)CO)S(=O)(=O)c2ccc(C#Cc3ccccc3F)cc2O[C@H]1CN(C)C(=O)c1ccc2c(c1)OCO2 | . | 3.8 | . | -31.6
CCCCOC(=O)c1cc(-c2ccc(/C=N/n3cnnc3)o2)ccc1Cl | -38.2 | -13.3 | 38.2 | 57.9*
CC(C)NC(=O)N(C)C[C@@H]1OCCCC[C@@H](C)Oc2ccc(NC(=O)NC3CCCCC3)cc2C(=O)N([C@@H](C)CO)C[C@H]1C | . | 1.5 | . | -0.5
COc1ccc(-n2c(=O)c3ccccc3n(CC(=O)NCC3CCCO3)c2=O)cc1 (stereo unspecified) | . | -9.0 | . | -1.7
COc1cccc(-n2c(=O)c3ccccc3n(CC(=O)NCC3CCCO3)c2=O)c1 (stereo unspecified) | . | -2.4 | . | 75.5*
Fc1ccc(NC(=S)NN=Cc2ccccc2Cl)cc1 | -18.2 | -9.4 | 18.2 | -30.0
Oc1ccccc1C=NNC(=S)Nc1ccc(F)cc1 | -100.8 | -24.7 | 100.8* | -16.3
Cc1nn(-c2ccccc2)c(N2CCCC2)c1/C=N/NC(=S)Nc1ccccc1C(F)(F)F | -57.4 | . | 57.4 | .
Cc1ccc(NC(=S)N/N=C/c2c(C)nn(-c3ccccc3)c2N2CCCC2)cc1 | -65.9 | . | 65.9 | 64.0*
Cc1nn(-c2ccccc2)c(N2CCCC2)c1/C=N/NC(=S)Nc1ccc(F)cc1 | . | -11.1 | . | 74.5*
Cc1nn(-c2ccccc2)c(N2CCCCC2)c1/C=N/NC(=O)c1ccncc1 | -87.4 | . | 87.4* | -4.8
CN(C)CC(=O)Nc1ccc2c(c1)[C@@H]1C[C@@H](CC(=O)NCc3ccc4c(c3)OCO4)O[C@@H](CO)[C@@H]1O2 | . | 12.2 | . | 3.9
C[C@H]1CN(C)C(=O)c2cccc(N(S(C)(=O)=O)S(C)(=O)=O)c2O[C@H]1CN(C)C(=O)OC(C)(C)C | . | . | . | -1.2

Some entries already given with just INS-1E GSIS act, Yeast UUG start and SR-BI DiI inh.
molecule	INS-1E GSIS act	Yeast UUG start	SR-BI DiI inh
C[C@H](NC(=O)[C@@H]1[C@@H](CO)[C@@H]2Cn3c(ccc(-c4ccccc4F)c3=O)[C@H]1N2C)c1ccccc1	19.1	.	.
Cc1ccc2oc(C(=O)Nc3nnc(C)s3)c(C)c2c1	.	-15.4	-2.0
COc1ccc2oc(C(=O)Nc3nnc(C)s3)c(C)c2c1	52.7*	-14.6	21.4

Reformatted: results already given
Value order: SR-BI uptake up	Yeast UUG start	SR-BI DiI inh	INS-1E GSIS act
Cc1nn(-c2ccccc2)c(N2CCCC2)c1/C=N/NC(=S)Nc1ccccc1C(F)(F)F
→ -57.4	.	57.4	.
Cc1ccc(NC(=S)N/N=C/c2c(C)nn(-c3ccccc3)c2N2CCCC2)cc1
→ -65.9	.	65.9	64.0*
Cc1nn(-c2ccccc2)c(N2CCCC2)c1/C=N/NC(=S)Nc1ccc(F)cc1
→ .	-11.1	.	74.5*

Next part.
canonical_smiles | SR-BI uptake up | Yeast UUG start | SR-BI DiI inh | INS-1E GSIS act
C[C@@H]1CCCCO[C@@H](CN(C)C(=O)Nc2ccc(C(F)(F)F)cc2)[C@@H](C)CN([C@H](C)CO)C(=O)c2cc(NC(=O)Nc3ccc(C(F)(F)F)cc3)ccc2O1 | . | -10.9 | . | 38.8
Cc1nn(-c2ccccc2)c(Cl)c1/C=N/O | 10.8 | . | -10.8 | 13.1
Cc1nn(-c2ccccc2)c(N2CCCC2)c1/C=N/NC(=S)Nc1cc(C(F)(F)F)ccc1Cl | -86.4 | -23.8 | 86.4* | -5.1
FC(F)Oc1ccc(/C=N/NC(=S)Nc2cc(C(F)(F)F)ccc2Cl)cc1 | -15.4 | -17.3 | 15.4 | 110.8*
Cc1nn(-c2ccccc2)c(N2CCCC2)c1/C=N/O | 24.2 | -17.7 | -24.1 | 91.2*
COc1ccc(CN2C[C@H](O)COC[C@H]3O[C@@H](CC(=O)NCCN4CCCC4)CC[C@@H]32)cc1 | . | . | . | 1.4
CCOc1ccc(Nc2oc(-c3ccc(Cl)cc3)nc2C#N)cc1 | -30.6 | -14.8 | 30.6 | 73.3*
C[C@H](CO)N1C[C@H](C)[C@H](CN(C)S(C)(=O)=O)Oc2ncc(/C=C/c3ccccc3)cc2C1=O | . | -16.4 | . | 6.1
C[C@H](CO)N1C[C@H](C)[C@H](CN(C)C(=O)Nc2ccccc2)Oc2c(NS(=O)(=O)c3cccs3)cccc2C1=O | . | -1.5 | . | 2.9
O=S(=O)(N1CCOCC1)n1c(Cc2ccccc2)nc2ccccc21 | 4.5 | -22.3 | -4.5 | 49.4*
O=S(=O)(c1ccc(Cl)cc1)n1c(Cc2ccccc2)nc2ccccc21 | 46.2 | -2.3 | -46.2 | 2.0
COc1ccc2c3c(n(C)c2c1)[C@H](CO)N(C(=O)CN(C)C)CC31CCN(C(=O)C2CCC2)CC1 | . | . | . | 18.4
COc1ccc(C)cc1NC(=O)C1CCN(C(=O)C2CC(=O)N(c3ccc(C)cc3)C2)CC1 (stereo unspecified) | -89.3 | 0.4 | 89.3* | 3.3
OC[C@H]1[C@H](c2ccc(C#CC3(O)CCCC3)cc2)[C@@H]2CN(Cc3cccnc3)CCCCN12 | . | -7.9 | . | -2.0
O=C(Nc1ccc(N2CCN(C(=O)c3ccco3)CC2)c(Cl)c1)c1cc2ccccc2o1 | -81.5 | -11.2 | 81.5* | .
CCC(=O)N1CCN(c2ccc(NC(=O)c3cc4ccccc4o3)cc2Cl)CC1 | -79.0 | -7.9 | 79.0* | .
CCCC(=O)N1CCN(c2ccc(NC(=O)c3cc4ccccc4o3)cc2Cl)CC1 | -61.8 | 0.7 | 61.8 | .
C[C@@H](O)C#Cc1cnc2c(c1)C(=O)N([C@@H](C)CO)C[C@H](C)[C@@H](CN(C)C(=O)Nc1ccc(F)cc1)O2 | . | -1.0 | . | 21.1
Cc1ccc(CNCC2CCCO2)o1 (stereo unspecified) | -4.0 | . | 4.0 | .
CCCCNCC1CCCO1 (stereo unspecified) | 6.5 | -0.8 | -6.5 | 41.4*
